# Measurements published in PubChem BioAssay (Tox21).
# Only a part is listed here, and it is no random draw. Results filed as inconclusive are left out. Where a call stands in place of a potency, no number is given. The source made the active and inactive calls. Calls follow the shape of the full dose curve.
# Test: p53 small molecule agonists, cell-based qHTS assay: qHTS cell viability counter screen (AID 1963581); also: nearly all actives have a fitted effect of over 45% in size
# Conditions: p53RE-bla HCT-116 viability, ATP luminescence, 16 h; series mostly up to 66 µM
# Excerpt: National Center for Advancing Translational Sciences [NCATS]
# Division of Preclinical Innovation [DPI]
# U.S. Environmental Protection Agency [EPA]
# National Institutes of Environmental Health Sciences [NIEHS]
# National Toxicology Program [NTP]
# U.S. Food and Drug Administration [FDA]
# p53, a tumor suppressor protein, is activated following cellular insult, including DNA damage and other cellular stresses. The activation of p53 regulates cell fate by inducing DNA repair, cell cycle arrest, apoptosis, or cellular senescence. The activation of p53, therefore, is a good indicator of DNA damage and other cellular stresses. The CellSensor p53RE-bla HCT-116 cell line (Invitrogen) contains a stably integrated beta-lactamase reporter gene under control of the p53 response elements. The activation of the reporter gene under culture conditions can be detected by fluorescence intensity. This cell line was used to screen the Tox21 compound library in a 1536-well plate format and to identify agonists that activate the p53 signaling pathway. The cytotoxicity of the Tox21 compound library against the p53 RE-bla HCT-116 cell line was tested in parallel by measuring the intra cellular ATP content in the same wells.
# Tox21 Assay Protocol Summary:
# The p53RE-bla cells were dispensed at 4,000 cells/5 ul/well in 1536-well black wall/clear bottom plates using a Multidrop dispenser. After the assay plates were incubated at a 37 C/5% CO2 incubator for 5 hours, 23 nL of compounds dissolved in DMSO, positive controls or DMSO only was transferred to the assay plate by a pin tool. The plates were incubated at 37 C for 16 hours. After 1 uL of LiveBLAzerTM B/G FRET substrate was added using a Flying Reagent Dispenser, the plates were incubated at room temperature for 2 hours, and fluorescence intensity was measured by an Envision plate reader. For cell viability readout that measures cytotoxicity, 4 ul/well of CellTiter-Glo reagent was added into the assay plates using a Flying Reagent Dispenser. After 30 min incubation at room temperature, the luminescence intensity in the plates was measured using a ViewLux plate reader.
# Potency is read from the fitted curve at half-maximal effect.
SMILES,Potency,"activity change, negative = cytotoxicity"
NC(=O)Nc1ccc([As](=O)(O)O)cc1,inactive,–
O=P(Cl)(Cl)c1ccccc1,inactive,–
CCCCC(CC)CO[P+](=O)OCC(CC)CCCC (stereo unspecified),inactive,–
CCCCOP(OCCCC)OCCCC,inactive,–
O=C(Cl)OCCOC(=O)Cl,inactive,–
CCOP(=S)(CC)Sc1ccccc1 (stereo unspecified),inactive,–
O=[N+]([O-])c1ccc([N+](=O)[O-])cc1,inactive,–
CCC(C)(OOC(C)(C)C)OOC(C)(C)C,–,inactive: 2.41% [at 13.5 µM]
O=C(Cl)Oc1ccccc1,inactive,–
COP(=S)(Cl)OC,inactive,–
O=[p+]1oc2ccccc2c2ccccc21 (stereo unspecified),inactive,–
CN(C(=O)Cc1cccc2occc12)[C@H]1CC[C@@]2(CCCO2)C[C@@H]1N1CCCC1,inactive,–
CCOC(=O)Cl,inactive,–
CN(C(=O)Cc1ccc(Cl)c(Cl)c1)[C@H]1CC[C@@]2(CCCO2)C[C@@H]1N1CCCC1,inactive,–
Cc1cc([N+](=O)[O-])cc([N+](=O)[O-])c1O,inactive,–
CCCCCCCCCCCCCC[P+](CCCCCC)(CCCCCC)CCCCCC,active: 11.5 µM,–
CC(C)CCCCCCCOP(OCCCCCCCC(C)C)Oc1ccccc1,inactive,–
Cc1cc([N+](=O)[O-])c(O)c([N+](=O)[O-])c1,inactive,–
O=[N+]([O-])c1ccc(S(=O)(=O)O)c([N+](=O)[O-])c1,inactive,–
O=[P+](Oc1ccccc1)Oc1ccccc1,inactive,–
ClP(Cl)c1ccccc1,inactive,–
O=P(Cl)(Oc1ccccc1)Oc1ccccc1,inactive,–
CCCCO[P+](=O)OCCCC,inactive,–
CC(C)OP(=S)(OC(C)C)SCCNS(=O)(=O)c1ccccc1,inactive,–
CN(C(=O)Cc1ccccc1)[C@H]1CC[C@@]2(CCCO2)C[C@@H]1N1CCCC1,inactive,–
CN(N=O)C(=N)N[N+](=O)[O-],inactive,–
